Biological target: T1, Polyunsaturated fatty acid lipoxygenase ALOX15 (Oryctolagus cuniculus, UniProt P12530)
T1 sequence (P12530 whole entry): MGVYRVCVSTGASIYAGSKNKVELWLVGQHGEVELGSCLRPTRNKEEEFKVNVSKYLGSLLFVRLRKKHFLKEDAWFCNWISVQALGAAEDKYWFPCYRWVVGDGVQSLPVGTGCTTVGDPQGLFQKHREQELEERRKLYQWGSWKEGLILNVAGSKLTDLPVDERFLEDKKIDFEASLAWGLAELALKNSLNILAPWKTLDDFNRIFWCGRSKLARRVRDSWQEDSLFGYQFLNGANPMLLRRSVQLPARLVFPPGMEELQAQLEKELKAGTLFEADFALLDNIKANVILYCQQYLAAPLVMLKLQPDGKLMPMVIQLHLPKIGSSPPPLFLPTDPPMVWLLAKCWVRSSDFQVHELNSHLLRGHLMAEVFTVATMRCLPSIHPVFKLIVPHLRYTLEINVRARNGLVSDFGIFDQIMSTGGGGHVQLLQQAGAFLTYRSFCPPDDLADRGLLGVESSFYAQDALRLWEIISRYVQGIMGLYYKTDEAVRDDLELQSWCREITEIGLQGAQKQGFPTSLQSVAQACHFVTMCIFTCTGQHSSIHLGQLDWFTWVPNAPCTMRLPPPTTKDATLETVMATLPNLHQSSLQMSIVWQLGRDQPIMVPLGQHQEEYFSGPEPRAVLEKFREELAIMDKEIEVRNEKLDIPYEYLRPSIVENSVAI
Assay: Inhibition of 15LOX in rabbit reticulocytes by spectrophotometric assay

c1ccc2c(c1)SCc1c-2[nH]c2ccccc12
IC50: 1120 nM

Source: ChEMBL document CHEMBL1147123, “Lipoxygenase inhibitory constituents of the fruits of noni (Morinda citrifolia) collected in Tahiti” (J Nat Prod, 2007)
